Tests used:
[1] = tested on: all cell lines, both neuronal and non-neuronal

For `NC(=O)c1ncn([C@@H]2O[C@H](CO)[C@@H](O)[C@H]2O)n1` [Ribavirin, 1-(β-D-ribofuranosyl)-1H-1,2,4-triazole-3-carboxamide], the “cell number (toxic effect)” value (HCN cells) was “decrease in cell number is clearly visible” and the toxic concentrations [1] was “greater than 400 nM”.

From US6680292B1 (The Salk Institute for Biological Studies, priority 1998, dated 2004)
